The values below come from patent US20090196864A1 (priority 2005, published 2009).

This assay has as its system S5 cells. In words: Cry1Ab toxin-induced cytotoxicity / cell death, Trypan blue exclusion analysis. Type of assay: cell-based, Trichoplusia ni. The conditions noted are these: S5 cells treated with inhibitor, switched to inhibitor-free buffer before Cry1Ab toxin treatment; percent of dead cells by Trypan blue staining.

Regarding `O=[As]c1ccccc1` (stereo not shown), the Cell death result is recorded as “+ (+ = 80 ± 5% cell death)”.
